# Measured melting point values of organic chemicals

From the experimental data distributed with OPERA 2.9.

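The OPERA project collected these measurements from public sources as training and test data for property models. A listed value is a point estimate from one report or more. Method and conditions are not stated for these values. A value may pool stereoisomers or salt forms, and the file does not say which form was measured. Some upstream entries may be estimates or bounds without being marked so.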

The melting point is given in degrees Celsius.

The entry for C=CCc1ccc(OC(=O)c2ccccc2)c(OC)c1 [Phenol, 2-methoxy-4-(2-propen-1-yl)-, 1-benzoate] lists mp 69.5 °C.
The entry for CCCCOc1ccc(C=O)cc1OCC [4-butoxy-3-ethoxybenzaldehyde] lists mp 39 °C.
The entry for CC1CCc2c(sc3ncnc(Cl)c23)C1 (configuration not stated) lists mp 120 °C.
The entry for COC(=O)c1cc(N2CCOCC2)ccc1N [Methyl 2-amino-5-(morpholin-4-yl)benzoate] lists mp 107 °C.
The entry for CC1=NN(C2CCS(=O)(=O)C2)C(=O)C1 (configuration not stated) lists mp 186 °C.
The entry for Nc1c(C(=O)O)cc(Br)c2c1C(=O)c1ccccc1C2=O lists mp 314 °C.
The entry for O=C(O)CCCc1nc2ccccc2s1 [4-Benzothiazol-2-yl-butyric acid] lists mp 149 °C.
The entry for CS(=O)(=O)Nc1ccc(N)cc1 [4-(Methylsulfonamido)aniline] lists mp 115 °C.
The entry for O=C(O)CCc1ccc(-c2ccccc2F)o1 [3-[5-(2-fluorophenyl)-2-furyl]propanoic Acid] lists mp 118 °C.
The entry for COc1cc(C=O)cc(Br)c1OCc1ccccc1 [4-(benzyloxy)-3-bromo-5-methoxybenzaldehyde] lists mp 49 °C.
The entry for NC(Cc1nc2ccccc2[nH]1)=NO [2-(1H-benzimidazol-2-yl)-N'-hydroxyethanimidamide] lists mp 139 °C.
The entry for Cc1ccc(S(=O)(=O)N2CCCC(C(=O)O)C2)cc1 (configuration not stated) [1-(4-Methylbenzene-1-sulfonyl)piperidine-3-carboxylic acid] lists mp 150 °C.
The entry for COc1ccc(-c2nc(C(=O)O)cs2)cc1OC [2-(3,4-dimethoxyphenyl)-1,3-thiazole-4-carboxylic Acid] lists mp 205 °C.
The entry for Brc1ccc(Oc2c(Br)c(Br)c(Br)c(Br)c2Br)cc1 [BDE-166] lists mp 184 °C.
The entry for Cc1cc(C)n(N)c(=O)c1C#N lists mp 165 °C.
The entry for OC(Cl)=NCc1nnc(-c2ccccc2)o1 lists mp 220 °C.
The entry for Clc1nnc(-c2ccccc2)s1 [2-Chloro-5-phenyl-1,3,4-thiadiazole] lists mp 83 °C.
The entry for COc1ccc(S(=O)(=O)Cl)cc1[N+](=O)[O-] [Benzenesulfonyl chloride, 4-methoxy-3-nitro-] lists mp 59 °C.
The entry for O=C(O)c1ccc(Sc2ccccc2)c([N+](=O)[O-])c1 [3-nitro-4-(phenylthio)benzoic acid] lists mp 229 °C.
The entry for CC(O)C(F)(F)F (configuration not stated) [1,1,1-Trifluoro-2-propanol] lists mp -52 °C.
The entry for CCOC(=O)c1c(C2CC2)csc1N [ethyl 2-amino-4-cyclopropylthiophene-3-carboxylate] lists mp 71 °C.
The entry for Cc1nn(-c2ccccc2)c(N)c1-c1ccccc1 [3-Methyl-1,4-diphenyl-1H-pyrazol-5-amine] lists mp 83 °C.
The entry for O=C(O)Cc1ccc2c(c1)CCCC2 [(5,6,7,8-Tetrahydronaphthalen-2-yl)acetic acid] lists mp 79 °C.
The entry for NC(=O)COc1ccc(C(=O)O)cc1 [4-(2-amino-2-oxoethoxy)benzoic acid] lists mp 274 °C.
The entry for O=C(O)CCc1nc2sc3c(c2c(=O)[nH]1)CCCC3 lists mp 141 °C.
The entry for COc1cc(C(=O)O)ccc1OC(C)C [4-isopropoxy-3-methoxybenzoic acid] lists mp 141 °C.
The entry for CN(C)S(=O)(=O)c1ccc(NC(=O)CCl)cc1 [Acetanilide, 2-chloro-4'-(dimethylsulfamoyl)-] lists mp 116 °C.
The entry for CC1(c2ccccc2)NC(=O)N(CC(=O)O)C1=O (configuration not stated) [(4-Methyl-2,5-dioxo-4-phenyl-imidazolidin-1-yl)-acetic acid] lists mp 171 °C.
The entry for COc1ccc2cc(CCl)c(Cl)nc2c1 [2-Chloro-3-(chloromethyl)-7-methoxyquinoline] lists mp 134 °C.
The entry for O=C(Cc1nc2ccccc2s1)c1ccccc1 [2-(1,3-Benzothiazol-2-yl)-1-phenylethan-1-one] lists mp 114 °C.
The entry for Nc1ccc(-n2cnc3ccccc32)cc1 [4-(1H-benzimidazol-1-yl)aniline] lists mp 105 °C.
The entry for O=Cc1c(-c2ccccc2)n(-c2ccccc2)c2ccccc12 [1H-Indole-3-carboxaldehyde, 1,2-diphenyl-] lists mp 247 °C.
The entry for CC1(C)[C@@H]2CC[C@@]1(C)C(=O)[C@H]2C(=O)O [d-Camphocarboxylic acid] lists mp 128 °C.
The entry for Cc1nc2ccc(Cl)cc2cc1C(=O)O [6-chloro-2-methylquinoline-3-carboxylic acid] lists mp 219 °C.
The entry for N#CC=Cc1ccc(Cl)cc1 [3-(4-Chlorophenyl)-2-propenenitrile] lists mp 46 °C.
The entry for CCOc1ccccc1-c1csc(N)n1 [4-(2-ethoxyphenyl)-1,3-thiazol-2-amine] lists mp 210 °C.
The entry for O=C(O)C1COCCO1 (configuration not stated) [1,4-dioxane-2-carboxylic Acid] lists mp 60 °C.
The entry for Cc1[nH]c(=S)oc1C [2(3H)-Oxazolethione, 4,5-dimethyl-] lists mp 133 °C.
The entry for CC(=O)c1ccc(S(N)(=O)=O)cc1 [Benzenesulfonamide, p-acetyl- (6CI,7CI,8CI)] lists mp 179 °C.